Columns and labels:
[1] = Release from L-PLA-co PEG5000 hydrogel-wall balloons in aqueous media; type: physicochemical; conditions: 1 cm balloons of L-PLA-co PEG5000 triblock or 50:50 mixture with L-PLA, 200 and 300 micron wall thicknesses
Description: In a similar experiment, biodegradable balloons of 1 cm diameter were prepared from triblock copolymers of L-PLA-co PEG5000, Mw=80,000 or in a 50:50 mixture with L-PLA Mw=120,000 by the solvent casting on a gelatin mold method. Balloons with 200 and 300 micron wall thicknesses were prepared. These balloons swell when inserted in aqueous media to form hydrogel walls which are permeable to water soluble molecules.

[2] = Release of loaded agents from poly(caprolactone-L-lactide)/PEG porogen balloons; type: physicochemical; conditions: for period of constant release from balloon: loaded with 10% w/v solution
Description: In a typical experiment, dichloromethane solutions of poly(caprolactone-L-lactide) 70:30 w/w, Mw=100,000 and polyethylene glycol Mw=400 (PEG400) and PEG2000 mixed at a 1, 5, 10 and 20 w/w % per polymer were used for producing balloons by dipping as described above. The balloons were immersed in water to allow the leach-out of the water soluble PEG. The balloons were analyzed for pore size, uniformity of pores throughout the membrane, and diffusion of LHRH hormone and BSA (bovine serum albumin) as representative protein. Uniform micron size holes of a similar size were generated for the 1 and 5% PEG but more holes for the 5%, while the 20% PEG generated much larger holes throughout the wall which also affects the strength of the wall. […] The balloon remain inflated for about 4 months in 0.1M phosphate buffer solution at 37° C. before signs of degradation occur measured by a significant decrease in molecular weight and change in the flexibility and clarity of the balloons. In a continuation experiment, lyophilized powder of LHRH (10 mg) on dextrose (100 mg) was dispersed in glycerol (100 mg) and injected into the 10 mm diameter balloon and release under physiological conditions was determined.

bovine serum albumin [BSA]
release from hydrogel-wall balloons [1]: released at a very low level | period of constant release from balloon ([2]; 5% PEG balloons of poly(caprolactone-L-lactide) 70:30): a few months | period of constant release from balloon ([2]; 20% PEG balloons of poly(caprolactone-L-lactide) 70:30): weeks | release behaviour in comparison with the other loaded agents ([2]; poly(caprolactone-L-lactide)/PEG balloons): released for a longer time at low concentrations compared with the LHRH
